Measured values from ChEMBL document CHEMBL1126802, “Structure-affinity relationship studies on 5-HT1A receptor ligands. 1. Heterobicyclic phenylpiperazines with N4-alkyl substituents” (J Med Chem, 1993).

Protein sequences, listed by entry. Tags and fused reporters are not part of them. Lines headed by an entry give the natural chain unless they say otherwise; changes in a name come on top.
UniProt P42866: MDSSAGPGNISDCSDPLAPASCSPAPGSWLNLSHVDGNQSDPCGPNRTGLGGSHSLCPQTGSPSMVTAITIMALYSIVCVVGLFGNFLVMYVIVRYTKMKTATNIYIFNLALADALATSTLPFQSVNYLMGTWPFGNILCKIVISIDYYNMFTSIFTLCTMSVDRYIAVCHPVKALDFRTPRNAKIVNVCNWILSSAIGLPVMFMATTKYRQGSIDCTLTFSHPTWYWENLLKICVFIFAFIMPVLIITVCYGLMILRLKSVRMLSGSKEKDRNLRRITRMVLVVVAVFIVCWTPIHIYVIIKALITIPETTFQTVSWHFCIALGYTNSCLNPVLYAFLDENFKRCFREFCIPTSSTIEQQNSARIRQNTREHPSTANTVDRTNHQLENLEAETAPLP
UniProt P32300: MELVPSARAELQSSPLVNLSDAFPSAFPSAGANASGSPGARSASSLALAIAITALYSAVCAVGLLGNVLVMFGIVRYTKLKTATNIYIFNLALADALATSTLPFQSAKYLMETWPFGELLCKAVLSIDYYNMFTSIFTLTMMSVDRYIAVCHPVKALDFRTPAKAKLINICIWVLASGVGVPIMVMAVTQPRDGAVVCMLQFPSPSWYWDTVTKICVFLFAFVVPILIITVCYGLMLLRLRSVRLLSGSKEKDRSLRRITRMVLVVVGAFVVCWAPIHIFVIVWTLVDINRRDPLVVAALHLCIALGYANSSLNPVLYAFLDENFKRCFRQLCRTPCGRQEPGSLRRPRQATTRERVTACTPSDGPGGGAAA
UniProt P33534: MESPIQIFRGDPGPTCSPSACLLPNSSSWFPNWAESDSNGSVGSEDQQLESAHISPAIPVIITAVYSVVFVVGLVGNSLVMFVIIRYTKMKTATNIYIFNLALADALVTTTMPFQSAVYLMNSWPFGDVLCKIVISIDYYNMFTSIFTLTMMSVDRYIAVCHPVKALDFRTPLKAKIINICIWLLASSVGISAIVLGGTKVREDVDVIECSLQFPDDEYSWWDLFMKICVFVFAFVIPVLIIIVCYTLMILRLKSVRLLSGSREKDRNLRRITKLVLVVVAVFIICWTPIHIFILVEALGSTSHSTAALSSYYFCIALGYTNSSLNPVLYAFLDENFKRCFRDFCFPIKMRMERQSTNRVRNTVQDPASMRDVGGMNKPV

Target: Opioid receptor (Mus musculus, UniProt P42866+P32300+P33534)
Test: Tested for displacement of radioligand [3H]-Naloxone from opiate receptor
Type: protein assay

Which IC50 does the source give for `CCOC(=O)C1(c2ccccc2)CCN(C)CC1` [MEPERIDINE] here?
The IC50 was 0.5 µM.
